# Results from patent US20260167742A1, “METHOD FOR TREATING GASTRIC CANCER BY COMBINING ANTI-HER2 ANTIBODY AND CHEMOTHERAPEUTIC AGENT, AND USE” (SHANGHAI HENLIUS BIOTECH, INC., priority 2023, published 2026).
# Legend:
# [1] = system: gastric cancer cells NCI-N87; assay: HER2 internalization (endocytosis) assay, pHrodo Green staining, flow cytometry; type: cell-based, human; settings: 10 μg/mL
# Description: (§1) A HER2 internalization assay was performed using pHrodoiFL Green STP ester amine reactive dye (P35369, Invitrogen). […] After a short wash with a wash buffer to remove unbound antibodies, one group of cells was placed on ice for freezing to stop internalization, and the remaining cells were placed in a 37° C. incubator for further incubation. After the co-incubation with the antibody, the cells were fixed with a fixation buffer (420801, Biolegend) for 30 min. Finally, all stained cells were washed with a staining buffer and analyzed on the CytoFLEX LX flow cytometer (Beckman Coulter, USA).
# [2] = system: gastric cancer cells SNU216; assay: as above; type: cell-based, human; settings: 10 μg/mL
# Description: as §1
substance,measurement,setting,value
"trastuzumab: anti-HER2 antibody, heavy chain SEQ ID NO: 11, light chain SEQ ID NO: 12; or biosimilar, trade name Hanquyou",HER2 internalization (endocytosis),[1],weak endocytosis
same,HER2 internalization (endocytosis),[2],weak endocytosis
